From paper PMC9323733, “Efficacy of Vafidemstat in Experimental Autoimmune Encephalomyelitis Highlights the KDM1A/RCOR1/HDAC Epigenetic Axis in Multiple Sclerosis” (Pharmaceutics, 2022)

Chains of the proteins cited; added tags and fusions are not shown.
UniProt P21453, whole entry: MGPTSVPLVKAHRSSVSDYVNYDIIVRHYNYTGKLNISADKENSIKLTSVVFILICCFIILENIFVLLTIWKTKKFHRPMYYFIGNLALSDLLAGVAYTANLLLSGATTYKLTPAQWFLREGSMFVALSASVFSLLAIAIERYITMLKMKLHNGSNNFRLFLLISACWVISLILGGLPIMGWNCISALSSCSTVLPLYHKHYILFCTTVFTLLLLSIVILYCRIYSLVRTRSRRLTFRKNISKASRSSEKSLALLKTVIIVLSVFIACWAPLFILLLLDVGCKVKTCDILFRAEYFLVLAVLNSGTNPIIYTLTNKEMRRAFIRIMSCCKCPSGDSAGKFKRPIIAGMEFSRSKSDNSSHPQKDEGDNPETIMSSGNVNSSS

Molecular target: T1, human S1P1 receptor (Homo sapiens, UniProt P21453)
T1 construct: host or cells: CHO cells
Test: CellKey impedance assay in CHO cells, agonistic and antagonistic effect
Format: cell-based
Conditions: GPCR based impedance assays
Method: Cell on impedance modulation, using the CellKey (Cellular Dielectric Spectroscopy) detection method (CellKey 96, MDS Sciex, Concord, ON, Canada) at Eurofins Pharma Discovery Services (Celle-Lévescault, France). CHO cells were seeded onto a 96-well plate at 15.104 cells/well in HBSS buffer (Invitrogen), 20 mM HEPES (Invitrogen), 10% FCS (Invitrogen), and 0.1% BSA (Sigma), allowed to equilibrate for 60 min at 28 °C. DMSO solutions of compounds were diluted in HBSS and 0.1% BSA. Plates were placed onto the system, and measurements were made at a temperature of 28 °C. To measure the agonistic effect, compounds and controls in duplicate were added simultaneously to all of the wells using an integrated fluidics system. Impedance measurements were monitored for 10 min after ligand addition. S1P (Sigma) was used as reference agonist (EC50 = 0.001 µM). To measure the antagonistic effect, compounds and controls in duplicate were pre-incubated for 15 min before the addition of the reference agonist S1P at 0.01 µM (EC80). Impedance measurements were monitored for 10 min.
Evaluation of the agonistic (a) and antagonist (b) effect of the compounds on the human S1P1 receptor. […] Data are expressed as percentage of control (no compound) activity, n = 2. TSA was used as a control; (d) Cellular HDAC activity assay. […] SAHA was used as a control. Ponceau S staining was used as loading control. Veh: Vehicle. […]

CCCCCCCCc1ccc(CC[C@](N)(CO)COP(=O)(O)O)cc1 [FTY720-P, Fingolimod Phosphate]
agonist and antagonist activity at S1P1 receptor: acts both as an agonist [46] and antagonist
